Tests used:
[1] = tested on: mice not subjected to stress; assay: Number of blinks and general observation in mice not subjected to stress; conditions: ophthalmic instillation once per day for 3 days, n=4 eyes each, versus physiological saline group, data not shown
From the text: When stress (risk factors) by the platform and air blowing overlap in mice, it has been confirmed by a preliminary separate test that a blepharospasm-like phenotype appears compared with mice not subjected to these stresses (not shown).

[2] = tested on: blepharospasm patients; assay: Ophthalmic instillation in blepharospasm patients; subjective symptoms evaluated by visual analog scale (VAS) and multiple questionnaires
Procedure: A 5-fold diluted solution was adjusted from a commercially approved tramadol injection solution (Tramadol Hydrochloride OD Tablets 25 mg "KO", Kotobuki Pharmaceutical Co., Ltd.), the diluted solution was subjected to suction filtration sterilization, dispensed and filled into ophthalmic solution bottles, and stored in a refrigerator. As quality testing, samples for quality inspection were extracted, tests were performed for drug assay, properties, pH, osmotic pressure ratio, sterility, insoluble foreign matter, and fine particles, and the pharmaceutical composition was transported and stored in the form of an eye drop as a pharmaceutical composition containing 1% tramadol, and was used in the following administration tests.
Ophthalmic instillation with the eye drops containing the 1% tramadol was administered to nine blepharospasm patients four times per day for one month. Subjective symptoms before and after administration were evaluated using the visual analog scale (VAS) and multiple questionnaires.

[3] = tested on: symptom model mice; assay: Number of blinks in symptom model mice stressed by platform and air blowing; conditions: C57BL/6JJcl 38-week-old female mice, stress 4 hours per day for approximately 3 weeks; eye drops stopped on day 18, blinks measured for 1 minute on day 21; versus physiological saline; FIG. 1
Procedure: A symptom model mouse reproducing symptoms corresponding to blepharospasm was produced, the eye drops containing the tramadol were administered to the symptom model mouse, and the effect of the pharmaceutical composition due to alleviation of symptoms was verified.
Six C57BL/6JJcl, 38-week-old female mice were subjected to stress by a platform and air blowing, thereby producing symptom model mice in which symptoms corresponding to blepharospasm appeared.
An unstable suspension bridge platform made of a rod-shaped member suspended by a string was installed above a cage filled with water. The stress by the platform and air blowing was applied by placing the mice on the platform and blowing air from the front and rear directions using blowers (fans).
The stress was applied for 4 hours per day (excluding Saturdays and Sundays), and was continued for approximately 3 weeks.
In parallel with the stress environment, the eye drops containing tramadol similar to those of Test Example 1 were administered to three of these symptom model mice. The group of the other three mice was treated with physiological saline only. On day 18, administration of tramadol was stopped, and on day 21, the number of blinks was measured.
The number of blinks was measured by restraining awake mice and measuring the number of blinks for 1 minute.

[4] = average for the nine cases, baseline before treatment
[5] = nine blepharospasm patients, ophthalmic instillation four times per day for one month, number of cases

Compound: COc1cccc(C2(O)CCCCC2CN(C)C)c1 (centres unmarked)
- number of blinks [1]: no significant difference
- other difference in the eyes or the whole body [1]: no other clear difference
- sensory hypersensitivity VAS after treatment ([2]; average for the nine cases, after four times per day for one month, p = 0.003 vs before treatment): 36.9 ± 21.4
- motor symptoms total score after treatment ([2]; average for the nine cases, after four times per day for one month, p = 0.02 vs before treatment): 1.8 ± 1.2
- motor symptoms total score before treatment [2, 4]: 3.4 ± 1.4
- sensory hypersensitivity VAS before treatment [2, 4]: 56.9 ± 18.9
- both sensory hypersensitivity and motor symptoms improved [2, 5]: five of nine cases
- neither sensory hypersensitivity nor motor symptoms improved [2, 5]: one of nine cases
- only motor symptoms improved [2, 5]: one of nine cases
- only sensory hypersensitivity improved [2, 5]: two of nine cases
- number of blinks [3]: significantly decreased

— patent EP4847016A1, “PHARMACEUTICAL COMPOSITION, BLEPHAROSPASM TREATMENT AGENT, HYPERSENSITIVITY OR DYSTONIA TREATMENT AGENT, AND SYMPTOM MODEL MOUSE” (dated 2026)
